Target: Sigma non-opioid intracellular receptor 1 (Homo sapiens, UniProt Q99720)
Assay: Antagonist activity at sigma 1 receptor (unknown origin)

SMILES: CN1C2CCCC1CC(Nc1ccccc1Br)C2 (stereo unspecified)
- IC50: 84 nM
